Data: ChEMBL document CHEMBL1149658, “Pyridinylimidazole inhibitors of Tie2 kinase” (Bioorg Med Chem Lett, 2007)

Assays:
Homo sapiens [1] = species: Homo sapiens; assay: Selectivity of Tie2 over PDGFR1beta
Homo sapiens [2] = species: Homo sapiens; assay: Selectivity of Tie2 over VEGFR2
Homo sapiens [3] = species: Homo sapiens; assay: Selectivity of Tie2 over VEGFR3

Measured: Selectivity ratio

COc1ccc2cc(-c3nc(-c4ccc([S+](C)[O-])cc4)[nH]c3-c3ccncc3)ccc2c1 (stereo not drawn)
> 10: all assays above
